molecular target: GST-TMEM106B (truncated, comprising amino acids 122-210 of SEQ ID NO:1) (Homo sapiens, UniProt Q9NUM4); assay: Pre-mix epitope binning of anti-TMEM106B antibodies (Carterra / Lake Pharma); design: key: Non-binder: an anti-TMEM106B antibody that was not capable of binding to the GST-TMEM106B polypeptide fusion used in these binning experiments (assigned bin 5); details: Non-binder: not capable of binding the GST-TMEM106B fusion (assigned bin 5)

Amino acid sequences for entries named in this document (tags omitted). A change or cut given only in a name is not applied to a line headed by its entry. Residues count along the entry.
UniProt Q9NUM4, 122-210: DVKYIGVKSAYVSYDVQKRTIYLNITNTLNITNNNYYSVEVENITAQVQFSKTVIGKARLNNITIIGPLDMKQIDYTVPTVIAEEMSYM

Molecule	Binding Community/Bin
TM-31: anti-TMEM106B monoclonal antibody; CDR-H1-3 SEQ ID NO: 11, 62, 105; CDR-L1-3 SEQ ID NO: 127, 178, 209 (antibody, V domains shown) VH: QVQLQQSGAELAKPGASVKVSCKASGYTFISYWMNWVKQRPGQGLEWIGYINPTSGYTRYNQKFKDKATLTADKSSSTAYMQLSSLTYEDSAVYYCARSPPTVVLIGYFDYWGQGTTLTVSS VL: DIKMTQSPSSMYASLGERVTFTCKASQDINSYLSWFQQKPGKSPKTLIYRGNGLVDGVPSRFSGSGSGQDYSLTISSLEYEDMGIYYCLQYDEFPFTFASGTKLEIK	Non-binder
TM-66: anti-TMEM106B monoclonal antibody; VH SEQ ID NO: 472, VL SEQ ID NO: 508 (antibody, V domains shown, Variable Heavy Chain -- TM-66; Variable Light Chain -- TM-66) VH: EVMLVESGGALVEPGGSLKLSCAASGITFSNYAMSWIRQTPEKRLEWVATIGSVGSYTYYPDSVKGRFTISRDNARNTLYLQMSSLRSEDTAMYYCARQEGSSHFDYWGQGTTLTVSS VL: DVVVTQTPPSLPVSFGDQVSISCRSSQSLVNSYGKTFLSWYLHKPGQSPQLLIYGISNRFSGVPDRFSGSGSGTVFTLKISTIKPEDLGMYYCLQGTHPPLTFGAGTKLEMK	Non-binder
TM-51: anti-TMEM106B monoclonal antibody; CDR-H1-3 SEQ ID NO: 34, 76, 118; CDR-L1-3 SEQ ID NO: 158, 181, 221 (antibody, V domains shown) VH: QVQLQQPGAELVKPGASVKLSCKASGYTFTTYWIDWVKQRPGQGLEWIGNMFPGSSRTNYNEKFKSRATLTVDTSSSTAYMQLSSLTSDDSAVYYCARKEGLWTYGYDGGAWFAYWGQGTLVTVSA VL: DIVMSQSPSSLAVSVGEKVTMSCKSSQSLRNSRTRKNYLAWYQQKPGQSPKLLIYWASTRESGVPDRFTGSGSGTDFTLTISSVQAEDLAIYYCKQSYNLLTFGAGTKLELK	Non-binder
TM-27: anti-TMEM106B monoclonal antibody; CDR-H1-3 SEQ ID NO: 2, 58, 101; CDR-L1-3 SEQ ID NO: 141, 177, 206 (antibody, V domains shown) VH: QVQLQQSGAELVRPGTSVKVSCKASGYALTNYLIEWVKQRPGQGLEWIGVINPGSGSTKYNEKFKGKATLTADKSSSTAYMQLSSLTSEDSAVYFCARIIYDHDWYFDVWGTGTTVTVSS VL: QIVLTQSPAIMSASPGEKVTISCSASSSISYMYWYQQKPGSSPKPWIYRTSTLASGVPARFSGSGSGTSYSLTISSMEAEDAATYYCQQYHSYPRTFGGGTKLEIK	Non-binder
TM-85: anti-TMEM106B monoclonal antibody; VH SEQ ID NO: 490, VL SEQ ID NO: 525 (antibody, V domains shown, Variable Heavy Chain -- TM-85; Variable Light Chain -- TM-85) VH: QVQLQQPGAELVRAGTSVKLSCKASGYTFIGYWMHWVKQRPGRGLEWIGRIDPYSGDTRYNEKFKNKATLTVDKPSSTAYMQLSSLTSEDSAVYYCARYGLGHAMDYWGQGTSVTVSS VL: DIAMSQSQKFMSTSVGDRVSVTCKASQNVGTNVAWYQQKPGQSPKALIYSASYRYSGVPDRFTGSGSGTDFTLTISNVQSEDLAEYFCQQYNSYPLTFGAGTKLEMK	Non-binder
TM-46: anti-TMEM106B monoclonal antibody; CDR-H1-3 SEQ ID NO: 30, 72, 114; CDR-L1-3 SEQ ID NO: 153, 182, 216 (antibody, V domains shown) VH: QVQLQQSGADLVKPGASVKISCKASGYAFSSFWMNWVKLRPGKGLEWIGQIYPGDGDTDYNGKFKDKATLTADTSSNTAYMQLSRLTSEDSAVYFCARGDGFSYFDYWGQGTILTVSS VL: QIVLTQSPVIMSASPGERVTMTCCASSRVNYMHWYQQKSGSYPKRWIYDTSKLASGVPGRFSGSGSGTSYSLTISSMEAEDAATYYCQQWSSNPPTFGGGTKLEIK	Non-binder
TM-77: anti-TMEM106B monoclonal antibody; VH SEQ ID NO: 482, VL SEQ ID NO: 517 (antibody, V domains shown, Variable Heavy Chain -- TM-77; Variable Light Chain -- TM-77) VH: QIQLQQSGAELVRPGASVKLSCKASGYTFTDYEMHWVKQTPVHGLEWIGVIDPETGGTAYNQMFKGKATLTADKSSSTAYMDLRSLTSEDSAVYYCVKYGIEGYWGQGTTLTVSS VL: DVVMTQIPLTLSVTLGQPASISCKSSQSLFHSNGKTYLNWLLQRPGQSPKLLIYMVSKLESGVPDRFSGSGSGTDFTLKISRVEAEDLGVYYCLQVTHFPLTFGAGTKLELK	Non-binder
TM-6: anti-TMEM106B monoclonal antibody; CDR-H1-3 SEQ ID NO: 7, 40, 83; CDR-L1-3 SEQ ID NO: 125, 165, 189 (antibody, V domains shown) VH: QVQLQQSGAELVKPGASVKLSCKASGYTFTEYTIHWVKQRSGQGLEWIGWFYPGSTYIDYNEKFKDKATLTADKSSSTVYLELSRLTSEDSAVYFCARHEEDYSNWFPFWGQGTLVTVSA VL: DIQMSQSSSYLSVSLGGRVTITCKASDHINNWLAWYQQKPGNAPRLLISGATSLETGVPSRFSGSGSGKDYTLSITSLQTEDVATYYCQQYWSSPYTFGGGTKLEIK	Non-binder
TM-33: anti-TMEM106B monoclonal antibody; CDR-H1-3 SEQ ID NO: 22, 64, 107; CDR-L1-3 SEQ ID NO: 146, 179, 210 (antibody, V domains shown) VH: EFQLQQSGPELVKPGASVKISCKASGYSFTDYNMNWVKQSNGKSLEWIGVINPNYGTTSYNQKFKGKATLTVDQSSSTAYMQLNSLTSEDSAVYYCASSYWGQGTLVTVSA VL: DIVMTQSQKFMSTTVGDRVSITCKASQNVGTAVAWYQQKPGQSPKLLIYSASNRYTGVPDRFTGSGSGTDFTLTISNMQSEDLADYFCQQYSSYPYTFGGGTKLEIK	Non-binder
TM-2: anti-TMEM106B monoclonal antibody; CDR-H1-3 SEQ ID NO: 3, 36, 79; CDR-L1-3 SEQ ID NO: 121, 161, 185 (antibody, V domains shown) VH: HIQLVQSGPELKKPGETVKISCKASGYTFTEYPMHWVKQAPGKGFRWMGMIYTNTGEPTYAAEFKGRFAFSLETSASTGYLQINNLKNEDSATYFCVTAGYWGQGTLVTVSA VL: QIVLTQSPAILSASPGEKVTMTCRASSSVSYIHWFLQKPGSSPKPWIYATSNLASGVPFRFIGSGSGTSYSLTISGVEAEDSATYYCQQWSSNPSTFGAGTKLELK	Non-binder
TM-69: anti-TMEM106B monoclonal antibody; VH SEQ ID NO: 474, VL SEQ ID NO: 510 (antibody, V domains shown, Variable Heavy Chain -- TM-69; Variable Light Chain -- TM-69) VH: QVQLKESGPDLVQPSQTLSLTCTVSGFSFTSYGVHWVRQPPGKGLEWVGIMGWDDKKYYNSALKSRLSISRDTSKNQVFLKLSSLQTEDTAMYYCTREAGPYGMDYWGQGTSVTVSS VL: DVVMTQTPLSLPVSLGDQASISCRSSQSLVHSNGNTYLHWYLQKPGQSPKLLIYKVSNRFSGVPDRFSGSGSGTDFTLKISRVEAEDLGVYFCSQNTHVPLTFGAGTKLELK	Non-binder
TM-56: anti-TMEM106B monoclonal antibody; VH SEQ ID NO: 465, VL SEQ ID NO: 501 (antibody, V domains shown, Variable Heavy Chain -- TM-56; Variable Light Chain -- TM-56) VH: QVHLQQSGAELAKPGASVKLSCKASGYTFTSYWMHWVKQRPGQGLEWIGYINPSSGYSKYNQRFKDKATLTADKSSTTAYMHLSSLTYADSAVYYCTREGGSISDWYFDVWGTGTTVTVSS VL: DIEMTQAAPSVPVTPGESVSISCRSSKSLLQNNGNTYLYWFLQRPGQPPQLLIYRMSNLASGVPDRFSGSGSGTAFTLRISRVEAEDVGVYYCMQHLEYPYTFGGGTKLEIK	Non-binder
TM-39: anti-TMEM106B monoclonal antibody; CDR-H1-3 SEQ ID NO: 26, 68, 111; CDR-L1-3 SEQ ID NO: 150, 180, 213 (antibody, V domains shown) VH: HVQRQQSGTELAKPGASVKLSCKTSGYTFTDYWMHWIKQRPGQGLEWIGFINPSSGYTKYNQNFKDKATLTADKSSSTAYMQLSSLTYEDSAVFYCAREAGSISDWYFDVWGTGTTVTVSS VL: DIVMTQAAPSIPVTPGESVSISCRSSKTLLNSNGNTYLYWFLQRPGQPPQLLIYRMSNLASGVPDRFSGSGSGTAFTLRISRVEAEDVGVYYCMQHLDYPYTFGGGTQLEIK	Non-binder
TM-34: anti-TMEM106B monoclonal antibody; CDR-H1-3 SEQ ID NO: 23, 65, 108; CDR-L1-3 SEQ ID NO: 147, 161, 211 (antibody, V domains shown) VH: EVQLVESGGGLVKPGGSLKLSCAASGFSFSDSGMDWVRQAPEKGLEWFAYISSGSSTTHYADTVKGRFIISRDNAKNTLFLQMTSLRSEDTAMYYCVRRDGNYWYFDVWGTGTTVTVSS VL: QIVLSQSPVILSASPGEKVTMTCRATSSVTYMHWYQLKPGSSPKPWIYATSNLASGVPARFSGSGSGTSYSLTISRVEAEDAATYYCQQWSSNPYTFGGGTKLEIK	Non-binder
TM-14: anti-TMEM106B monoclonal antibody; CDR-H1-3 SEQ ID NO: 2, 48, 91; CDR-L1-3 SEQ ID NO: 132, 172, 196 (antibody, V domains shown) VH: QVQLQQSGPELVRPGTSVKVSCKASGYAFTNYLIEWVKQRPGQGLEWIGVINPGGGNTDYSEKFKDKATLTADKSSNTAYIQLSSLTSEDSAVYFCARSPYSSYVGYAVDYWGQGTSVTVSS VL: DIQMTQSPSSLSASLGERVSLTCRASQDIGSNLNWLQQEPDGTIKRLIYATSSLDSGVPKRFSGSRSGSDYSLTISSLESEDFVVYYCLQYASSPRTFGGGTRLEIK	Non-binder

— patent US20240166738A1 (priority 2021, published 2024)
